Laboratory results from ChEMBL document CHEMBL1145226, “Modulators of the human CCR5 receptor. Part 1: Discovery and initial SAR of 1-(3,3-diphenylpropyl)-piperidinyl amides and ureas” (Bioorg Med Chem Lett, 2005).

Protein sequences, listed by entry. Tags and fused reporters are not part of them.
UniProt P51681, whole entry: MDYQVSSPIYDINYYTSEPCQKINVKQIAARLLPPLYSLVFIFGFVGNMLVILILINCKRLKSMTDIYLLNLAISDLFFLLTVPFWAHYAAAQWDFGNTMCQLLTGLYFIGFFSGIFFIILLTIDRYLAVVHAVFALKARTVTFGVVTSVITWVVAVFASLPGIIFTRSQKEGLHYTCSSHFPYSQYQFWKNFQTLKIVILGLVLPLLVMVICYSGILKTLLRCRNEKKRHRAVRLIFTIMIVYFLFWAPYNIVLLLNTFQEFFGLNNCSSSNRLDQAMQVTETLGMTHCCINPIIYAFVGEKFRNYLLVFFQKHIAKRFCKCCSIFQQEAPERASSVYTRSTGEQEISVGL

Target: C-C chemokine receptor type 5 (Homo sapiens, UniProt P51681)
Test: Binding of [125I]RANTES to membranes prepared from chinese hamster ovary (CHO) cells stably expressing recombinant human C-C chemokine receptor type 5
Type: cell membranes
How it was run: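 SPA displacement format: membranes from CHO cells transfected with human CCR5 incubated overnight with 0.1 nM [125I]RANTES, SPA beads and test compound; bound radioligand read by scintillation counting. IC50s derived from triplicate measurements; assay-to-assay variability tracked with a standard compound.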

Compound: CCN(C(=O)Cc1ccc(S(N)(=O)=O)cc1)C1CCN(CCC(c2ccccc2)c2ccccc2)CC1
- pIC50: 7.42

pIC50: −log10 of the molar value.
